The results in this text go back to patent US20170128592A1, “TARGETED POLYMERIC NANO-COMPLEXES AS DRUG DELIVERY SYSTEM” (Indian Institute of Technology, Bombay, priority 2015, published 2017).

A short description of data set [1]: Surface charge by Zeta-potential analyzer. In kind it is physicochemical. The settings on record: Milli Q water, room temperature, pH 7.0. On the procedure: (§1) The particle size and size distribution of the well-dispersed and nanocomplexes (0.5 mg/mL) diluted in Milli Q water were measured by Dynamic light scattering (DLS, 90Plus, Brookhaven Instruments Corporation, USA) at 25° C., scattering angle of 90° and using a 632 nm red laser. The surface charge of the nanocomplexes was determined by ZetaPlus Zeta-potential analyzer (Brookhaven Instruments Corporation, USA) in Milli Q water at room temperature at pH 7.0. Physical stability of the nanocomplexes when stored at 4° C. as a suspension in PBS (pH 7.4) was examined by evaluating their size distribution and zeta potential over a period of one month. CA4 or 2 ME encapsulation efficiency in the PLGA-b-PEG nano-complexes and Cet-PLGA-b-PEG nano-complexes were measured by UV spectrophotometer (Perkin Elmer, Lambda 25) and calculated using the following formula; Drug encapsulation efficiency (%)=(amount of loaded drug/amount of drug added)×100%.

The test system of data set [2] is Huh7 cells. Put plainly: Intracellular uptake by ultrastructural TEM. Type of data set: cell-based, human. The settings on record: Huh7, 50 μg/mL (combination 25+25 μg/mL), 24 hr. The text has this:
Untreated cells served as the control. Briefly, the treated cells were centrifuged, fixed with 2.5% glutaraldehyde, washed with PBS, followed by fixation with 1% osmium tetroxide. Cells were dehydrated in a graded series of alcohol, embedded using DER 332-732 embedding kit (EMS, USA) and polymerized for 48 hr. These resin blocks containing cells were sectioned using an ultramicrotome (Leica Ultracut UCT, Germany) and ultrathin sections (70 nm) were transferred onto 300 mesh Formvar and carbon coated copper grids (EMS, USA). The grids were then processed with uranyl acetate and lead citrate solutions to visualize the cellular ultrastructures. Internalization of the nanocomplexes was visualized under TEM (FEI TECNAI, 12 BioTwin, Netherlands) operating at 80 kV.

A further data set in a line: Particle size by FEG-TEM. Type of data set: physicochemical. On the procedure: The size, shape and surface morphology of the nanocomplexes were investigated using the field-emission gun transmission electron microscopy (FEG-TEM, JEOL, JEM-2100 F, Japan) operating at 200 kV. Samples (0.5 mg/mL) were dropped on carbon-coated copper grid, negatively stained with 1% phosphotungstic acid and air dried. For field-emission gun scanning electron microscopy (FEG-SEM, JSM-7600 F, Japan) analysis, the dried nanocomplexes were placed on a stub and coated with gold using a sputter gold coater Auto Fine Coater (JEOL, Tokyo, Japan) prior to SEM application.

Data set [3] concerns Huh7 cells. Kind of data set: SRB cytotoxicity assay. In kind it is cell-based, human. The following applies: Huh7, 50, 75, 100, 150 and 250 μg/mL, 48 hr. On the procedure:
(§2) For cytotoxicity measurements, Hep G2 and Huh7 cells were incubated in 96-well plates (Nunc, USA) at 5×10^4 cells/well density and then treated with bare PLGA-b-PEG NP, Cet-PLEA-b-PEG NP (50-250 μg/mL), free drug CA4, its nano-complexes ([…]) and free drug 2 ME, its nano-complexes (1-15 μM) for 48 hr. […] The standard SRB assay was used to measure the cell viabilities. The absorbance was measured with a 96-well fluorescence plate reader (SPECTRAmax M2, Molecular Devices, USA) equipped with the SOFTmax Pro software (Molecular Devices), at a 550 nun wavelength. IC50 values of the free drugs and all the nanocomplexes were evaluated using OriginPro 8.0 software.

Another data set relates to Hep G2 cells. Put plainly: SRB cytotoxicity assay. The following applies: Hep G2, 50, 75, 100, 150 and 250 μg/mL, 48 hr. In kind it is cell-based, human. As for the experimental part:
as §2

Data set [4] can be described thus: Particle size and size distribution by dynamic light scattering. The following applies: DLS, mean hydrodynamic diameter, Milli Q water, 25° C., three determinations. In kind it is physicochemical. On the procedure: as §1
A further data set deals with normal L929 cells. Kind of data set: SRB biocompatibility assay. Type of data set: cell-based. The following applies: L929, 50-250 μg/mL, 48 hr. As for the experimental part:
as §2

The test system of another data set is normal NIH3T3 cells. Kind of data set: SRB biocompatibility assay. The settings on record: NIH3T3, 50-250 μg/mL, 48 hr. Type of data set: cell-based. On the procedure: as §2

On to “Cet-PLGA-b-PEG NP: bare PLGA-b-PEG nano-complex surface functionalized with cetuximab”, for which the “Zeta potential (mV ± SE)” value in data set [1] is −18.85 ± 4.51 mV. The “ultrastructural TEM findings, internalization and cell morphology” value with Huh7 cells [2] is given as “mostly distributed in the cell cytoplasm”. Further, in “Particle size by FEG-TEM”, the “average size of the particles by FEG-TEM” value is given as 200±20 nm. Besides, the “cytotoxicity of bare nanocomplexes” value with Huh7 cells [3] and in the data set on Hep G2 cells was “non-cytotoxic” in each case. For the same substance, the “Particle size (nm ± SE)” value in data set [4] is on record as 291.9 ± 2.3 nm. Also, the “cytotoxicity of bare nanocomplexes (biocompatibility)” value in the data set with normal L929 cells and in the data set on normal NIH3T3 cells was “non-cytotoxic” throughout.
